The text below walks through data of PubChem BioAssay AID1825 (The Scripps Research Institute Molecular Screening Center, 2009).

The entries are a selection whose mix differs from that of the whole data set. Calls of active or inactive are those of the source. Rule as the data show it: active = inhibition above about 22%; inactive = the rest.

One may read the inhibition as the drop in the measured response relative to a control, in per cent.

This assay in a line: IEC-6 cell viability reduction – luminescence, cytotoxicity control for KLF5 inhibitor project, primary screen (AID 1825).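 Also: 0% = plate median of test compound wells and 100% = cytotoxic reference compound wells.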 The conditions noted are these: IEC-6 cytotoxicity, at 5 µM, active compounds read high.
`Cc1ccc(OP(=O)(Nc2ccccn2)Oc2ccc(C)cc2)cc1`: the inhibition was inactive: -2.8%.
